Assay results published in PubChem BioAssay (Tox21).
Values joined by “and” are separate entries in the source; they are usually repeats but may differ in a detail not shown here. Identical values can stand only once. Only a part is listed here, and it is no random draw. Results filed as inconclusive are left out. A structure can be active in one record and inactive in another. Active and inactive are the calls of the source. Unless noted, the call rests on the fitted dose curve; in most records, active means well fitted curve in the direction sought with a large enough effect in the repeat runs; inconclusive means weak or mixed curves; inactive means no such curve, though single readings can be large; an effect the other way counts as inactive or inconclusive.

By UniProt entry, the sequences of proteins in these tests, tags left out. Where a name states a change or a piece, a line headed by the entry shows the natural chain unless it says otherwise.
UniProt P19793: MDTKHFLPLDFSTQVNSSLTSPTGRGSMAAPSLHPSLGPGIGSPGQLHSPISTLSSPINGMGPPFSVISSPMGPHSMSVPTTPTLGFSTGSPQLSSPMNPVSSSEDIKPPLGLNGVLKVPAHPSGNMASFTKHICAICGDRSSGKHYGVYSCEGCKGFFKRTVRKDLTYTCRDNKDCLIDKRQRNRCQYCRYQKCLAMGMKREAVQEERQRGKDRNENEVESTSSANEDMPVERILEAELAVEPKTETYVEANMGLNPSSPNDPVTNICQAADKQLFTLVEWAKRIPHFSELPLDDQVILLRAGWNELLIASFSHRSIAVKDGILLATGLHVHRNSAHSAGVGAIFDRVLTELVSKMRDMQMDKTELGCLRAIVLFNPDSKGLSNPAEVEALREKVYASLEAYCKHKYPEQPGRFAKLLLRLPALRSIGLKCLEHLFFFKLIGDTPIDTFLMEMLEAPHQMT
UniProt Q96RI1: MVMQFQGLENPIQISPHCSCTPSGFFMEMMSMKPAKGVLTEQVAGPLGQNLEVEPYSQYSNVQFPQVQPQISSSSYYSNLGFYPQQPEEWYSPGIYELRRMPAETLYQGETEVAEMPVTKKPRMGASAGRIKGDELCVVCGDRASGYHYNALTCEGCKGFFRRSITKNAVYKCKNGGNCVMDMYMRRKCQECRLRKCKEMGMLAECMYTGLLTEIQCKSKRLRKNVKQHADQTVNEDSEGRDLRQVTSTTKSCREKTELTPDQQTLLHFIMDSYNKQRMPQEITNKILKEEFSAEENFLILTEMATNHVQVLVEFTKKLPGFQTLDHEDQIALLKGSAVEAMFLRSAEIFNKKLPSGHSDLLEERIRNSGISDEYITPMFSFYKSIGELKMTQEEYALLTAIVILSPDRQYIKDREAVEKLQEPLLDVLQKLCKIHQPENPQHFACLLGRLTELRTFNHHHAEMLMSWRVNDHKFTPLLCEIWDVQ
UniProt Q03181: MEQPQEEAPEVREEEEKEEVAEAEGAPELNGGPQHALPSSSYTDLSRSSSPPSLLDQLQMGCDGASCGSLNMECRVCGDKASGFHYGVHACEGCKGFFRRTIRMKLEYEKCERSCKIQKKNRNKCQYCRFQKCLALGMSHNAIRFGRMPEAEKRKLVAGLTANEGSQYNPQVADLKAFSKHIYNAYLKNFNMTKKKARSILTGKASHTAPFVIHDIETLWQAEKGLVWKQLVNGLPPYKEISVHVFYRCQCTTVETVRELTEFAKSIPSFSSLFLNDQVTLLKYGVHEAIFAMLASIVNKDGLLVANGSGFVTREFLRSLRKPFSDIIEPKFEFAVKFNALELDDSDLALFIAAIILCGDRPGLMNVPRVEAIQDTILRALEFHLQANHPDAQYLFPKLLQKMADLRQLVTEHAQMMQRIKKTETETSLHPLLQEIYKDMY

How the values were obtained:
[1] = qHTS assay to identify small molecule antagonists of the peroxisome proliferator-activated receptor delta (PPARd) signaling pathway - cell viability counter screen (AID 743213); further: nearly all actives have a fitted effect of over 50% in size; further: potency means the concentration at half of the fitted maximal effect
Procedure, shortened: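 Cytotoxicity counter screen: CellTiter-Glo luminescence read 30 min after addition, in the same wells as the reporter assay. There, PPARd UAS-bla HEK293H cells (3000/well) were treated 17 h at 37 C with compound and 300 nM L165041.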

[2] = qHTS assay to identify small molecule agonists of the farnesoid-X-receptor (FXR) signaling pathway - cell viability counter screen (AID 743218); further: nearly all actives have a fitted effect of over 45% in size; further: potency means the concentration at half of the fitted maximal effect
Procedure, shortened: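 After 16 h at 37 C with test compounds, FXR-bla HEK 293T cells were given LiveBLAzer B/G substrate for 2 h at RT and then CellTiter-Glo; luminescence was taken after 30 min.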

[3] = qHTS assay to identify small molecule antagonists of the farnesoid-X-receptor (FXR) signaling pathway - cell viability counter screen (AID 743221; active means well fitted cell-killing curve with a large enough effect in the repeat runs, not every such curve was filed as active; further: nearly all actives have a fitted effect of over 50% in size; further: potency means the concentration at half of the fitted maximal effect)
[4] = qHTS assay to identify small molecule antagonists of the vitamin D receptor (VDR) signaling pathway - cell viability counter screen (AID 743225); further: on the % scale 0 is the no-effect control and ±100 the full control effect; nearly all actives have a fitted effect of over 50% in size
Procedure, shortened: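 Cells (VDR-UAS-bla HEK 293T) are plated, rested 4 h at 37C, dosed with compound and 3 nM final 1-alpha,25-dihydroxy vitamin D3, and incubated 16 h. Viability is taken from CellTiter-Glo luminescence in the reporter wells.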

[5] = target: Nuclear receptor ROR-gamma (Homo sapiens) (UniProt P51449); assay: qHTS assay to identify small molecule antagonists of the retinoid-related orphan receptor gamma (ROR-gamma) signaling pathway (AID 1159521;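 further: CHO cells with doxycycline inducible ROR-gamma driving an RORE luciferase reporter; top concentration of the series differs between compounds; on the % scale 0 is the no-effect control and ±100 the full control effect; nearly all actives have a fitted effect of over 50% in size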); details: Tet-on RORgamma CHO cells, RORE-luciferase, 16 h
[6] = qHTS assay to identify small molecule agonists of the AP-1 signaling pathway - cell viability counter screen (AID 1159525; calls by dose curve; further: nearly all actives have a fitted effect of over 55% in size); details: ME-180 AP-1-bla cells viability, ATP luminescence, 5 h; at 76.8 µM (top of the series) unless noted
Procedure, shortened: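 Luminescent ATP readout (Cell Titer Glo, 30 min RT), normalised to DMSO and tetra n-octyl ammonium bromide controls. Cells were ME-180 AP-1-bla in 0.5% dialyzed FBS Opti-MEM, with a 5 h, 37 °C compound exposure.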

[7] = target: Retinoic acid receptor RXR-alpha (Homo sapiens) (UniProt P19793); assay: qHTS assay to identify small molecule agonists of the RXR signaling pathway (AID 1159527; calls by dose curve; further: on the % scale 0 is the no-effect control and ±100 the full control effect; nearly all actives have a fitted effect of over 35% in size); details: HEK293T RXRa-UAS-bla, beta-lactamase ratio, 16 h
[8] = qHTS assay to identify small molecule agonists of the RXR signaling pathway - cell viability counter screen (AID 1159529); further: nearly all actives have a fitted effect of over 50% in size; further: potency means the concentration at half of the fitted maximal effect
Procedure, shortened: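 Cell viability is measured by CellTiter-Glo luminescence, 30 min at room temperature, in wells already read for beta-lactamase. Engineered HEK 293T cells (RXR-alpha-UAS-bla) are dosed 16 hr at 37 C. Tetraoctyl ammonium bromide serves as positive control.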

[9] = qHTS assay to identify small molecule antagonists of the retinoid acid receptor (RAR) signaling pathway - cell viability counter screen (AID 1159551); details: C3RL4 cells viability, ATP luminescence (CellTiter-Glo), 6 h; at 92.4 µM (top of the series) unless noted; further: on the % scale 0 is the no-effect control and ±100 the full control effect; nearly all actives have a fitted effect of over 35% in size
Procedure, shortened: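 Seed C3RL4 cells; next day add compound, then retinol to 1 uM final; incubate 6 h at 37 C; add CellTiter-Glo; read luminescence after 30 min at RT.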

[10] = qHTS assay to identify small molecule agonists of the retinoic acid receptor (RAR) signaling pathway (AID 1159553); details: C3RL4 RARE luciferase reporter, agonist, 6 h; at 73.3 µM (top of the series) unless noted; further: on the % scale 0 is the no-effect control and ±100 the full control effect
Procedure, shortened: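 Activation of retinol signaling was monitored via a RARE luciferase reporter in C3RL4 cells. After 6 hr compound treatment at 37 C, detection reagent was added for 30 min at room temperature before luminescence reading.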

[11] = qHTS assay to identify small molecule antagonists of the estrogen related receptor (ERR) signaling pathway - cell viability counter screen (AID 1224818); further: potency means the concentration at half of the fitted maximal effect;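 further: viability measured after 17.5 h of compound exposure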
Procedure, shortened: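 In the same ERR cell assay, compound-treated wells (17.5 h, 37 C) were multiplexed with a fluorogenic viability reagent, CellTiter-Fluor, read after 30 min to flag cytotoxic substances.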

[12] = qHTS assay to identify small molecule antagonists of the estrogen related receptor signaling pathway with the pleiotropic PPARgamma coactivator (PGC) cell viability counter screen (AID 1224822; further: potency means the concentration at half of the fitted maximal effect)
Procedure, shortened: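 Compounds in DMSO, with positive and negative controls, were applied to PGC/ERR cells (2,000/well) and left 17.5 h at 37 C before CellTiter-Fluor detection.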

[13] = qHTS assay to identify small molecule agonists of the NFkB signaling pathway - cell viability counter screen (AID 1159515; calls by dose curve; further: on the % scale 0 is the no-effect control and ±100 the full control effect; nearly all actives have a fitted effect of over 55% in size); details: NFkB-bla ME-180 viability, CellTiter-Glo luminescence, 5 h; at 61 µM (top of the series) unless noted
Procedure, shortened: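 5 hr compound treatment of NFkB-bla ME-180 cells (2,000/well, seeded overnight beforehand), followed by reporter substrate for 1.5 hr. CellTiter-Glo added afterward; luminescence after 30 min RT.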

[14] = qHTS assay to identify small molecule agonists of the endoplasmic reticulum stress response signaling pathway (AID 1159516; active means well fitted activation curve with a large enough effect in the signal ratio in the repeat runs, not every such curve was filed as active; the % refers to the signal ratio; further: on the % scale 0 is the no-effect control and ±100 the full control effect); details: ESRE-bla HeLa, ER stress beta-lactamase reporter, 5 h; at 61 µM (top of the series) unless noted
Procedure, shortened: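 Reporter HeLa cells (ESRE-beta-lactamase) underwent 5 hr compound incubation at 37 C and 5% CO2 in quantitative HTS format. Detection followed 2 hr of FRET substrate loading at room temperature.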

[15] = qHTS assay to identify small molecule agonists of the AP-1 signaling pathway (AID 1159526; calls by dose curve; further: on the % scale 0 is the no-effect control and ±100 the full control effect); details: ME-180 (cervical carcinoma) AP-1-bla reporter, beta-lactamase FRET ratio, 5 h; at 76.8 µM (top of the series) unless noted
[16] = target: Bile acid receptor (Homo sapiens) (UniProt Q96RI1); assay: qHTS assay to identify small molecule agonists of the farnesoid-X-receptor (FXR) signaling pathway (AID 743220; active means well fitted activation curve with a large enough effect in the signal ratio in the repeat runs, not every such curve was filed as active; the % refers to the signal ratio; further: on the % scale 0 is the no-effect control and ±100 the full control effect); details: HEK293T FXR-UAS-bla, beta-lactamase FRET ratio, 16 h; at 62.6 µM (top of the series)
[17] = qHTS assay to identify small molecule antagonists of the estrogen related receptor (ERR) signaling pathway (AID 1224819)
Procedure, shortened: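 qHTS in ERR cells, 2,000/well, 1536 format. Cpd (DMSO) added after 6 h settle, 18 h 37 C. One-Glo luminescence, 30 min RT.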

[18] = qHTS assay to identify small molecule agonists of the estrogen related receptor (ERR) signaling pathway (AID 1224820); details: ERR reporter cell line, luciferase agonist mode; at 46.1 µM (top of the series) unless noted; further: on the % scale 0 is the no-effect control and ±100 the full control effect
Procedure, shortened: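 ERR reporter cells (NTP line) plated 2,000/well, incubated 6 h at 37 C/5% CO2, then pinned with compounds in DMSO and held 18 h at 37 C. One-Glo added; luminescence read after 30 min at room temperature.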

[19] = target: Peroxisome proliferator-activated receptor delta (Homo sapiens) (UniProt Q03181); assay: qHTS assay to identify small molecule antagonists of the peroxisome proliferator-activated receptor delta (PPARd) signaling pathway (AID 743215; active means well fitted inhibition curve with a large enough effect in the signal ratio in the repeat runs, not every such curve was filed as active; the % refers to the signal ratio); details: HEK293H PPARd-UAS-bla, beta-lactamase FRET ratio, antagonist, 17 h; at 62 µM (top of the series)
Procedure, shortened: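 With L165041 present at 300 nM final, compounds were incubated 17 h at 37 C on PPARd UAS-bla HEK293H cells. A FRET-based beta-lactamase substrate was then applied for 2 h at room temperature and fluorescence intensity recorded.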

[20] = target: Bile acid receptor (Homo sapiens) (UniProt Q96RI1); assay: qHTS assay to identify small molecule antagonists of the farnesoid-X-receptor (FXR) signaling pathway (AID 743217; active means well fitted inhibition curve with a large enough effect in the signal ratio in the repeat runs, not every such curve was filed as active; the % refers to the signal ratio; further: on the % scale 0 is the no-effect control and ±100 the full control effect); details: HEK293T FXR-UAS-bla, beta-lactamase ratio, CDCA-stimulated, 16 h; at 62.6 µM (top of the series) unless noted
Procedure, shortened: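 In this cell-based antagonist screen, inhibition of CDCA-driven (50 uM final) UAS-beta-lactamase expression in HEK 293T cells was measured by FRET fluorescence following 16 h compound exposure at 37 °C.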

CN(N=O)C(=N)N[N+](=O)[O-]
inactive: Potency [1] | Potency [2] | Potency [3] | Potency [4] | activity change, negative = inhibition ([5]; at 92.4 µM (top of the series)) -21.1% | viability change, negative = cytotoxic [6] -3.61% | activation ([7]; at 76.8 µM (top of the series)) -7.57% | Potency [8] | activity change, negative = cytotoxicity [9] 3.97% | activation [10] 4.24%

CN(C(=O)Cc1ccc(Cl)c(Cl)c1)[C@@H]1CC[C@]2(CCCO2)C[C@H]1N1CCCC1
inactive: Potency [11] | Potency [12]

CCOC(=O)Cl
inactive: Potency [1] | Potency [3] | Potency [4] | activity, negative = cytotoxic [13] -2.61% | activation [14] -2.26% | activity change, negative = inhibition ([5]; at 92.4 µM (top of the series)) -9.42% | viability change, negative = cytotoxic [6] -4.27% | activation [15] 0.601% | activation ([7]; at 76.8 µM (top of the series)) 3.74% | Potency [8] | activity change, negative = cytotoxicity [9] 1.3% | activation [10] -1.8%

CCCCOP(OCCCC)OCCCC
inactive: activity change, negative = inhibition ([5]; at 92.4 µM (top of the series)) 1.59% | viability change, negative = cytotoxic [6] 0.802% | activation [15] 1.79% | activation ([7]; at 76.8 µM (top of the series)) 4.66% | Potency [8] | activity change, negative = cytotoxicity [9] -0.697%

CN(C(=O)Cc1ccccc1)[C@@H]1CC[C@]2(CCCO2)C[C@H]1N1CCCC1
inactive: Potency [11] | Potency [12]

Cc1cc([N+](=O)[O-])cc([N+](=O)[O-])c1O
active: Potency [11] 22.5 µM | Potency [17] 16 µM | Potency [12] 15.4 µM
inactive and 1.06 µM (active): Potency [2]
inactive: activation [16] -0.171% | Potency [3] | activation [14] -5.03% | viability change, negative = cytotoxic [6] 7.59% | activation [10] -15.6% | activation [18] -62.7% [at 92.2 µM]
inactive and 3.46 µM (active): Potency [8]

CN(C(=O)Cc1ccccc1)[C@H]1CC[C@@]2(CCCO2)C[C@@H]1N1CCCC1
inactive: Potency [1] | ratio activity, negative = inhibition [19] 4.35% | activity change, negative = inhibition [20] 4.78% | Potency [2] | activation [16] 0.976% | Potency [3] | Potency [4] | activation [14] 3.13% | activity change, negative = inhibition ([5]; at 42.5 µM (top of the series)) -14.1% | viability change, negative = cytotoxic [6] 0.264% [at 35.3 µM] | activation [15] -6.87% [at 35.3 µM] | activation ([7]; at 35.3 µM (top of the series)) 1.2% | Potency [8] | activity change, negative = cytotoxicity [9] -2.53% [at 42.5 µM] | activation [10] -1.09%

CCCCCCCCCCCCCC[P+](CCCCCC)(CCCCCC)CCCCCC
active: Potency [1] 7.74 µM | Potency [3] 48.8 µM

CC(C)CCCCCCCOP(OCCCCCCCC(C)C)Oc1ccccc1
inactive: Potency [1] | Potency [3] | Potency [4] | activity, negative = cytotoxic [13] -12.2% | activation [14] 1.96% | activity change, negative = inhibition ([5]; at 92.4 µM (top of the series)) -19.3% | viability change, negative = cytotoxic [6] -5.04% | activation [15] 14% | activation ([7]; at 76.8 µM (top of the series)) 0.0298% | Potency [8] | activity change, negative = cytotoxicity [9] -0.281% | activation [10] 13.7%
